Tested on: hESC-CMs
Experiment: α-actinin immunostaining for sarcomeric integrity
Assay type: cell-based, human
Procedure: hESC-CMs were permeabilized using 0.1% Triton X-100 (Thermo Fisher Scientific, USA). After permeabilizing for 15 minutes, cells were washed three times in PBS, and further permeabilization was blocked by incubating cells in PBS with 10% FBS (Hyclone, USA) for 1 hour at room temperature. Cells were incubated with the primary anti-actinin antibody (1:400) (Abcam, UK) and diluted in PBS with 10% FBS overnight. Cells were then washed three times with PBS and incubated with a goat anti-mouse IgG1 secondary antibody (1:1000 diluted in PBS with 10% FBS) (Thermo Fisher Scientific, USA) for 1 hour at room temperature. Finally, cells were washed twice with PBS and mounted using ibidi mounting medium with DAPI (Ibidi, Germany). Microscopic images were acquired using the DMi8s Research Inverted Thunder Imager Live Cell System (Leica, Germany) at 20×, 40×, and 100× magnification.

Compound: C[C@@H](CN1CC(=O)NC(=O)C1)N1CC(=O)NC(=O)C1.Cl [Dex, 4,4′-[(1S)-1-Methyl-1,2-ethanediyl]bis-2,6-piperazinedione hydrochloride, reference compound]
- sarcomeric damage (α-actinin immunostaining): sarcomeric damage was evidently attenuated

Reference: US12209112B2, “Methods of preventing or treating diseases, conditions, or disorders associated with chemotherapy” (The Chinese University of Hong Kong, priority 2022, dated 2025)
